{"source": "paper PMC5843756", "about": "“The drug interaction potential of daprodustat when coadministered with pioglitazone, rosuvastatin, or trimethoprim in healthy subjects” (Pharmacology Research & Perspectives, 2018)", "origin": "cited, not measured here", "conditions": "coadministration of trimethoprim; ref Hruska et al. 2005; cited from earlier work", "data": [{"smiles": "CN(CCOc1ccc(CC2SC(=O)NC2=O)cc1)c1ccccn1", "note": "(stereo not shown) [rosiglitazone]", "values": [{"measurement": "fold increase in AUC with trimethoprim", "result": 1.31, "unit": "fold"}]}]}
